Tested on: human A431 tumor cells (xenograft)
Assay: A431 xenograft tumor model in nude mice, tumor volume
Assay type: in vivo, mouse
Conditions: Example 10; for outcome (death/euthanasia or survival): A431 xenograft mice
Description: Female Balb/c nude mice were injected subcutaneously with a suspension of human A431 tumor cells. Under the skin of the mice, a human epidermal carcinoma developed in the xenograft animal tumor model. After injection of the tumor cells, the xenograft tumor was allowed to develop to a size of approximately 170-180 mm^3. The A431 tumor cells have the following characteristics: high EGFR expressors, medium 0071 expressors, low HER2 expressors.
In Table 6A, the results of the treatment of control mice and tumor-bearing mice are presented. Tumor-bearing mice were treated with the indicated antibodies directed to either human Her2/neu, human EGFR, or human CD71, which are cell-surface receptors on the xenograft tumor. Cetuximab was covalently conjugated with saponin SO1861. […] The dose of the ADCs was sub-optimal in the tumor model. That is to say, from previous experiments, it was established at which sub-optimal dose of the ADCs no tumor-regression or arrest of tumor growth would be observable.
The 2 target 2-components system (2T2C) is the combination treatment of mAb1-SO1861 and mAb2-protein toxin, (FIG. 1B-D).

Substance	outcome (death/euthanasia or survival)	tumor size (volume) (female Balb/c nude mice, start size approximately 170-180 mm^3, sub-optimal ADC dose) [mm^3]
Cetuximab: monoclonal antibody recognizing and binding human EGFR	(death/euthanasia)	–
Cetuximab-SO1861: cetuximab conjugated to saponin SO1861 via cleavable hydrazone (EMCH) linker	death/euthanasia	2000

— patent publication US20230256111A1, “C[…] ADC OR AN AOC COMPRISING A VHH, AND A SAPONIN OR A LIGAND-SAPONIN CONJUGATE” (SAPREME TECHNOLOGIES B.V., priority 2020, published 2023)
